# Apparent affinities of Ab-95 variants for a coronavirus HR2 peptide

From the AlphaSeq antibody data of Engelhart et al. 2022 (doi:10.1038/s41597-022-01779-4), copy in the FLAb collection.

Target peptide (SARS-CoV-2 spike, HR2 region): PDVDLGDISGINAS

Parent scFv Ab-95: VH joined to VL by the linker GGGGSGGGGSGGGGS. Changes lie in the light chain CDRs alone.
VH: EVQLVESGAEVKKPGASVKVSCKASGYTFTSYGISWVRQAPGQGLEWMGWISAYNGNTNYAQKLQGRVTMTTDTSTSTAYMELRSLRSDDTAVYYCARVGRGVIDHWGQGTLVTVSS
VL: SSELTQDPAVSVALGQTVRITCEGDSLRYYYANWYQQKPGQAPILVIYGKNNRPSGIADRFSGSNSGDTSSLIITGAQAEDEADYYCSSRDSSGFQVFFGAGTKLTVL

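AAYL52 was designed without a model: most single CDR substitutions and a random sample of double and triple ones. In AlphaSeq, yeast of one mating type display the scFv and yeast of the other type display the target. Binding brings cells together so that they mate, and sequencing counts the barcode pairs among the diploids. Scores were corrected for input abundance and mapped to Kd with protein pairs of known affinity run in the same pool. Mating was done three times.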

Variants are written as CDR1, CDR2 and CDR3 of the light chain (limits as in the source). Parent: EGDSLRYYYAN, GKNNRPS, SSRDSSGFQVF. Affinities are written as log10 Kd with Kd in nM; a lower number is a better binder. Averages over replicates are reported, and they cover detected replicates only. Where no diploid with the target was found in any replicate, the entry reads "nd": below detection, most likely a poor binder, though not proof of it.

Result 4.68 (1 of 3 replicates), variant EVDSLRYYYAN, GKNNRPS, TSRDSSGFPVF.
Result 4.54 (2 of 3 replicates), variant EGDSLRYYYFN, YKNNRPS, SSRDSPGFQVF.
Result 4.19 (1 of 3 replicates), variant EGDSLRYYYAA, GKNNRPS, SVRTSSGFQVF.
Result 2.48 (3 of 3 replicates), variant EGDSGDYYYAN, GKNNRPS, SMRDSSGFQVF.
Result 3.73 (2 of 3 replicates), variant EGDSLRYYYYN, GTNNRPS, SQRDSSGFQVF.
Result 2.39 (1 of 3 replicates), variant EGDYLRYYYAN, GKCNRPS, SSRDSSIFQVF.
Result 4.01 (2 of 3 replicates), variant EGDSLCYYYAN, GKNNRPS, SSRDCSGFQVF.
Result nd (0 of 3 replicates), variant EGDSLRYYYAN, GKNNAPS, SSRDSSGGQVK.
Result nd (0 of 3 replicates), variant YGDSLRYYYAN, GKNIRPS, SSRDSSEFQVF.
Result 1.15 (3 of 3 replicates), variant EGDSLQYYSAN, GKNNRPS, SSRDSSGFQVF.
Result 1.85 (3 of 3 replicates), variant EGDSLRYAYAN, GKNNRPS, SSRQSSGIQVF.
Result 4.05 (1 of 3 replicates), variant EGDSLRYYYAN, GKNNDPS, SSRCSSGFQVF.
Result 3.27 (2 of 3 replicates), variant EGDSLRYYYAN, GQNNRPF, SERDSSGFQVF.
Result 5.24 (1 of 3 replicates), variant EGDSLRFYYAN, GKFNRPS, SSRDSSGFRVF.
Result 4.69 (3 of 3 replicates), variant EGDSLRYYYGG, GKNNRPS, SSRDPSGFQVF.
Result nd (0 of 3 replicates), variant EGDSLRYYYAN, EKNNRPS, SSRDSSGSDVF.
Result 4.14 (1 of 3 replicates), variant EGDSKRYWYAN, GKLNRPS, SSRDSSGFQVF.
Result 3.05 (1 of 3 replicates), variant EGDSLRYWYAN, LKNNRPS, SSRDSSGPQVF.
Result 3.83 (1 of 3 replicates), variant EQDSLRYYYAN, GKNNRPS, SSRDSSSFQVD.
Result 2.25 (3 of 3 replicates), variant EGDSLRYTYAN, GKNNRHS, SSRDSSGMQVF.
Result 4.66 (1 of 3 replicates), variant EDDSLRYYYAN, GKNNRPS, ISRDASGFQVF.
Result 4.11 (2 of 3 replicates), variant PGDSLRYYYAN, SKNNRPS, SSRDSSGFQVM.
Result 3.07 (3 of 3 replicates), variant EGDGLRYYYAN, GKNNRPC, SSRDSSGFQVV.
Result 2.93 (3 of 3 replicates), variant EGDSLPYYYAN, GKNLRPS, SSRYSSGFQVF.
Result 3.26 (3 of 3 replicates), variant EGDSLRYLYAN, GKNRRPS, SSRDSSGFQVF.
Result 2.81 (3 of 3 replicates), variant EGDSLWYDYAN, GKNSRPS, SSRDSSGFQVF.
Result 2.21 (3 of 3 replicates), variant KGDSLRYYYVN, GKNNRPI, SSRDSSGFQVF.
Result 2.94 (3 of 3 replicates), variant EGVFLRYYFAN, GKNNRPS, SSRDSSGFQVF.
Result 3.59 (1 of 3 replicates), variant EGDMLRYYYFN, GKNNRPN, SSRDSSGFQVF.
Result 2.33 (3 of 3 replicates), variant EGDSLRYYYAN, GKNNRPS, SMRDSSGFVVF.
Result 4.42 (1 of 3 replicates), variant EGDSLRYYYAN, GKNNRTS, SSRDSSGWQPF.
Result nd (0 of 3 replicates), variant EGNSLRYYYAN, GKNTRPS, SSRDSSFFQVF.

Three control strains display no target. For library AAYL52, 28% of the pairings with them gave a signal, with a median of 3.91 and one signal in twenty below 2.90, so weak values seen in few replicates may be background. Parent in this assay: reference entry 2.31, copy in this library 2.25.